Laboratory results reported in patent US6818618B1, “Inhibition of smooth muscle cell migration by Tenascin-C peptides” (Cedars-Sinai Medical Center, priority 1998, dated 2004).

Assays:
Assay type in all cases: cell-based, rat
[1] = test system: adhesion of newborn SMCs to the Fbg-L domain; experiment: Adhesion of newborn SMCs to Fbg-L domain-coated wells in the presence of soluble agents; conditions: EDTA or cations; not shown
Experimental: (§1) Microtiter plates (Falcon, Becton Dickinson, Oxnard, Calif.) were coated with the respective substrate for one (1) hour at 37° C. Nonspecific sites were blocked with 1 mg/ml BSA in PBS. […] After incubation for 60 min. at 37° C., nonadherent cells were removed with gentle washing with PBS. The number of attached cells were quantified by staining cells with 0.2% crystal violet in 20% methanol, lysing with 1% SDS, and measuring the absorbance at 550 nm (14).
(§2) In FIG. 8(B), 96-well plates were coated with BSA, intact Tenascin-C (TN) or the fibrinogen-like domain (Fbg-L), and adhesion of newborn cells was measured in the presence of 1 μM synthetic peptides.

[2] = test system: adhesion of newborn SMCs to the recombinant 10th-type III repeat of fibronectin; experiment: Adhesion of newborn SMCs to the recombinant 10th-type III repeat of fibronectin in the presence of soluble agents; conditions: various concentrations of cation
Experimental: as §1
It has been shown that the interaction of some cells with Tenascin-C is mediated by the RGD motif (20, 23). Therefore, an adhesion assay was used to determine the role of RGD in the interaction between Tenascin-C and SMCs. The specificity of the adhesion was determined by coating the wells with the recombinant 10th-type III repeat of fibronectin (24). […]
(§3) In FIG. 3, 96-well plates were coated with solutions containing intact fibronectin (FN), the recombinant 10th-type III repeat of fibronectin (FN10III), or Tenascin-C (TN). […] The number of attached cells was quantified by a colorimeter. […]
(§4) To distinguish between these possibilities, the recombinant FN-L proteins were labeled with ^125I, and their ability to coat the tissue culture dishes was compared to the Fbg-L domain. […] Adhesion was measured as described above. […]

[3] = test system: adhesion of newborn SMCs to Tenascin-C; experiment: Adhesion of newborn SMCs to Tenascin-C-coated wells in the presence of soluble agents
Experimental: as §1
It has been shown that the interaction of some cells with Tenascin-C is mediated by the RGD motif (20, 23). Therefore, an adhesion assay was used to determine the role of RGD in the interaction between Tenascin-C and SMCs. The specificity of the adhesion was determined by coating the wells with the recombinant 10th-type III repeat of fibronectin (24). In FIG. 2, 96-well plates were coated with either BSA (BSA), Tenascin-C (TN), or the recombinant 10th-type III repeat of fibronectin (10III) as described for FIG. 1. Newborn SMCs were detached, washed once in adhesion buffer and added to various concentrations of the peptide GRGDS. Cells and peptides were then preincubated for 30 min. prior to plating. The values shown are the mean±SEM of triplicate samples. Nonspecific binding to control wells coated with BSA was not subtracted from each value.
as §3, with “colorimeter. Values shown are from a representative experiment in which triplicates are plotted as mean±SEM.” for “colorimeter.”
as §4, §2

## [Ca+2] [Ca^2+]
[1]
  effect on adhesion of SMCs to the Fbg-L domain: but not
[2]
  effect of cation on newborn SMCs adhesion to the recombinant fibronectin fragment: ineffective
[3]; Ca^2+ up to 10 mM in the presence of Mg^2+, not shown
  inhibition of the Mg^2+-dependent adhesion of newborn cells to Tenascin-C: no indication
[3]; concentration not given
  effect on adhesion of SMCs to Tenascin-C (summary statement): but not
[3]; various concentrations of cation
  effect of cation on newborn SMCs adhesion to Tenascin-C: ineffective
